Source: ChEMBL document CHEMBL1122042, “Chemical synthesis and molecular pharmacology of hydroxylated 1-(1-phenylcyclohexyl-piperidine derivatives” (1982)

Legend:
[1] = target: T1, Opioid receptor (Mus musculus) (UniProt P42866+P32300+P33534); assay: Inhibition of the specific binding of [3H]morphine to Opioid receptors
[2] = target: Muscarinic acetylcholine receptor (Mus musculus) (UniProt Q920H4+Q9ERZ4+P12657+P32211+Q9ERZ3); assay: Inhibition of the specific binding of [3H]QNB to Muscarinic acetylcholine receptor
[3] = target: T1, Opioid receptor (Mus musculus); assay: Hill coefficient for binding of [3H]morphine to Opioid receptors

Row | SMILES | K0.5 [1] | K0.5 [2] | nH [3]
1 | O[C@H]1CC[C@@](c2ccccc2)(N2CCCCC2)CC1 | 100 µM | > 100 µM | 
2 | O[C@H]1CC[C@](c2ccccc2)(N2CCCCC2)CC1 | 17.5 µM | > 100 µM | 1
